The list shows a part of the results, in another mix than the full data. Some of these compounds have results that are not shown, active ones among them. Activity calls are given as the source filed them.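 The calls were made as follows: active = compounds causing at least 50% loss of cell viability in the single-dose screen, relative to plate controls; inactive = the rest.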
Test: TRAIL-exposed caspase-8 expressing cell killing – NB7+C8 cells, ATPlite luminescence, TRAIL sensitizer project, primary screen (AID 624354)
Details: at 10 µM, hits give high values

Row | SMILES | inhibition (viability loss, TRAIL sensitization)
1 | Cc1ccccc1C(=O)NCC1(N2CCCCC2)CCCCC1 | inactive: -7.47%
2 | CN(C)C1CCCC1OC(=O)C(O)(c1ccccc1)c1ccccc1 (stereo unspecified) | inactive: 4.39%
3 | CN(C)c1ccc(C(=O)NCC2(N(C)C)CCCCC2)cc1 | inactive: 10.4%
4 | Cc1cc(C(=O)NCC2(N3CCCCC3)CCCCC2)ccc1[N+](=O)[O-] | inactive: 4.67%
5 | CCN1CCCC(OC(=O)C2(O)c3ccccc3C=Cc3ccccc32)C1 (stereo unspecified) | inactive: -12.8%
6 | O=C(NCC1(N2CCCCC2)CCCCC1)c1cccc(Br)c1 | inactive: 5.79%
7 | COc1ccc(C(=O)NCC2(N(C)C)CCCCC2)cc1 | inactive: 9.02%
8 | C=CCN1CCN(CCOC(=O)C(O)(c2ccccc2)c2ccccc2)CC1 | inactive: 4.74%
9 | O=C(NCC1(N2CCCCC2)CCCCC1)c1cc(F)c(F)cc1Cl | inactive: 9.77%
10 | CN1[C@@H]2CC[C@H]1CC(OC(=O)C(O)(c1ccccc1)c1ccccc1)C2 (stereo partly specified) | inactive: 15.1%
11 | O=C(NCC1(N2CCCCC2)CCCCC1)c1cc([N+](=O)[O-])ccc1Cl | inactive: -5.33%
12 | Cc1ccc(C(=O)NCC2(N3CCCCC3)CCCCC2)cc1 | inactive: -20.6%
13 | CC(C)N1C(=O)CC2(CCN(CCOC(=O)C(O)(c3ccccc3)c3ccccc3)CC2)C1=O | inactive: -10.4%
14 | CCN(CC)CC(C)C(C)OC(=O)C(O)(c1ccccc1)c1ccccc1 (stereo unspecified) | inactive: -17.5%
15 | COc1cc(SC)ccc1C(=O)NCC1(N(C)C)CCCCC1 | inactive: -12.7%
16 | O=C(OC1CN2CCC1CC2)C(CO)(c1ccccc1)c1ccccc1 (stereo unspecified) | inactive: -16.9%
17 | CN(C)c1cccc(C(=O)NCC2(N(C)C)CCCCC2)c1 | inactive: -8.47%
18 | CC(C)Oc1ccc(C(=O)NCC2(N(C)C)CCCCC2)cc1 | inactive: 15.3%
19 | O=C(OCCN1CCCC1)C(O)(c1ccccc1)c1ccccc1 | inactive: 1.51%
20 | COc1ccc(Br)c(C(=O)NCC2(N3CCCCC3)CCCCC2)c1 | inactive: -7.62%
21 | C=C(C)C#CC(O)(C(=O)OC1CCN(C)CC1)c1ccccc1 (stereo unspecified) | inactive: -8.55%
22 | COc1cc(C(=O)NCC2(N(C)C)CCCCC2)c([N+](=O)[O-])cc1OC | inactive: -25%
23 | CN(C)C1(CNC(=O)c2ccc(Br)cc2)CCCCC1 | inactive: 5.81%
24 | O=C(NCC1(N2CCCCC2)CCCCC1)c1cccc(Cl)c1 | inactive: 9.89%
25 | COc1cccc(C(=O)NCC2(N3CCCCC3)CCCCC2)c1 | inactive: 18.6%
26 | COc1ccc(Cl)cc1C(=O)NCC1(N(C)C)CCCCC1 | inactive: 0.745%

Source: PubChem BioAssay AID624354 (Sanford-Burnham Center for Chemical Genomics, 2012)
